# The entries are a selection whose mix differs from that of the whole data set. The source made the active and inactive calls. Calls come from the whole dose curve; as a rule, active = well fitted inhibition curve with a large enough effect; inconclusive = small, poorly fitted or top-dose-only effect; inactive = no such curve, though single readings can be large or run the other way.
# By UniProt entry, the sequences of proteins in these tests, tags left out.
# UniProt Q8WZA2, whole entry: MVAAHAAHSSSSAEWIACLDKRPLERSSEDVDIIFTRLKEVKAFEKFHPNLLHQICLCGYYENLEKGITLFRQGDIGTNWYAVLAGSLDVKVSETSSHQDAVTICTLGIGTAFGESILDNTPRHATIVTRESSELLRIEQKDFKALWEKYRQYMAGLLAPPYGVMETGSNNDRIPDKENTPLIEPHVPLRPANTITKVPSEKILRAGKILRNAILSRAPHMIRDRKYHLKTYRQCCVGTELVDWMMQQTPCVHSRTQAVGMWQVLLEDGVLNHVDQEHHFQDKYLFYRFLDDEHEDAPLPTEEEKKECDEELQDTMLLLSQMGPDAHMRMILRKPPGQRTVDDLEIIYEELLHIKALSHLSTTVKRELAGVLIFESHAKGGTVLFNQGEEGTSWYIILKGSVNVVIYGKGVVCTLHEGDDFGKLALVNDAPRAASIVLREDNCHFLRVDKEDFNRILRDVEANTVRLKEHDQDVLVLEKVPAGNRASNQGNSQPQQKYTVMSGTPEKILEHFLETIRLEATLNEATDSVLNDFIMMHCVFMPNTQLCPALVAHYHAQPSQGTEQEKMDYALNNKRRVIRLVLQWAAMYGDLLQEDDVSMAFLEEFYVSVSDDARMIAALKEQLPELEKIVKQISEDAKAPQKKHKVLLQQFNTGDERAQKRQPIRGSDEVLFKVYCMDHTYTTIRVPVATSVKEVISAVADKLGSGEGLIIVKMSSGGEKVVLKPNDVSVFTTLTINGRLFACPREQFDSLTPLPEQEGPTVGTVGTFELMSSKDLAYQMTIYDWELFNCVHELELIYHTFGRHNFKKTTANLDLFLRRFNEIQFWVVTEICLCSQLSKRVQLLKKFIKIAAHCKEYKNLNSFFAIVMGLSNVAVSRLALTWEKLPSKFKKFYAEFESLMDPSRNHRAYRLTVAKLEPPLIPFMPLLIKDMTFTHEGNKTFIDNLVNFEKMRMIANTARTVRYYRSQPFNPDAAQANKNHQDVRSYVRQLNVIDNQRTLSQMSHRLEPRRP
# Molecular target: Rap guanine nucleotide exchange factor 4 (Homo sapiens) (UniProt Q8WZA2)
# Assay: qHTS for Antagonist of cAMP-regulated guanine nucleotide exchange factor 2 (EPAC2): primary screen; note: nearly all actives have a fitted effect of over 45% in size
# Conditions: EPAC2 GEF exchange of Rap1B-BODIPY-GDP, fluorescence; at 114 µM (top of the series) unless noted
# % is set by controls: 0 for no effect and ±100 for the full control effect.
row,SMILES,"activity, negative = inhibition"
1,COc1ccc(C(=O)NCC2(N3CCCCC3)CCCCC2)cc1,inactive: 0.0914%
2,CC(C)(C)OC(=O)N1CCC(N(C(=O)c2ccccc2)c2ccc(F)cc2)CC1,inactive: -3.64%
3,COc1ccc(C(=O)NCC2(N3CCCCC3)CCCCC2)c(OC)c1OC,inactive: -8.96%
4,CCC(c1nnnn1C1CCCC1)N1CCC(n2c(=O)[nH]c3ccccc32)CC1 (stereo unspecified),inactive: 2.95%
5,CSc1ccccc1C(=O)NCC1(N2CCCCC2)CCCCC1,inactive: 0.134%
6,Cc1cccc(NC2(C#N)CCN(Cc3ccccc3)CC2)c1,inactive: 5.49%
7,CCC(CO)(C(=O)OC1CN2CCC1CC2)c1ccccc1 (stereo unspecified),inactive: -0.728%
8,COc1cc(OC)cc(C(=O)NCC2(N3CCOCC3)CCCCC2)c1,inactive: -2.55%
9,COc1cccc(C(c2nnnn2C2CCCC2)N2CCC(n3c(=O)[nH]c4ccccc43)CC2)c1OC (stereo unspecified),inactive: -14.9%
10,COc1cccc(C(=O)N(c2cc(C)cc(C)c2)C2CCN(C(=O)OC(C)(C)C)CC2)c1,inactive: -26.7%
11,CN1CCC(Nc2ccc(Cl)cc2)CC1,inactive: 5.71%
12,CCOc1ncccc1C(=O)NCC1(N2CCOCC2)CCCCC1,inactive: 3.76%
13,CN1CCC(Nc2ccc(F)c(Cl)c2)CC1,inactive: 4.52%
14,O=c1[nH]c2ccccc2n1C1CCN(C(c2cc3ccccc3o2)c2nnnn2C2CCCC2)CC1 (stereo unspecified),inactive: -14.7%
15,CCCOc1ccc(C(=O)NCC2(N(C)C)CCCCC2)cc1,inactive: 0.828%
16,CC(C)(C)OC(=O)N1CCC(Nc2ccccc2)CC1,inactive: 2.43%
17,O=C(O)C1(Nc2ccccc2)CCN(Cc2ccccc2)CC1,inactive: -4.48%
18,NN(c1ccccc1)C1CCN(CCc2ccccc2)CC1,inactive: -1.07%
19,Cc1ccccc1NC1(C#N)CCN(Cc2ccccc2)CC1,inactive: 12.1%

row,SMILES,"activity, negative = inhibition"
1,CCN1CCC(Nc2cccc(F)c2)CC1,inactive: 26.2%
2,COc1ccc(C(c2nnnn2C2CCCCC2)N2CCC(n3c(=O)[nH]c4ccccc43)CC2)cc1 (stereo unspecified),inactive: -10.9%
3,CC(C)(C)n1nnnc1C(c1ccnc2ccccc12)N1CCC(n2c(=O)[nH]c3ccccc32)CC1 (stereo unspecified),inactive: -16.1%
4,O=C(NCC1(N2CCCCC2)CCCCC1)c1ccco1,inactive: 7.65%
5,CN(C)c1ccc(C(=O)NCC2(N3CCCCC3)CCCCC2)cc1,inactive: 2.21%
6,Cn1c(=O)[nH]cc(N(CCCl)CCCl)c1=O,inactive: 2.75%
7,COc1cc(OC)cc(C(=O)NCC2(N3CCCCC3)CCCCC2)c1,inactive: -2.44%
8,O=c1[nH]c2ccccc2n1C1CCN(C(c2ccnc3ccccc23)c2nnnn2C2CCCCC2)CC1 (stereo unspecified),inactive: 6.26%
9,COc1cccc(C(c2nnnn2C2CCCCC2)N2CCC(n3c(=O)[nH]c4ccccc43)CC2)c1OC (stereo unspecified),inactive: -10.4%
10,CC(=O)N(c1ccccc1)C1CCNCC1,inactive: 0.512%
11,CCC(c1nnnn1C1CCCCC1)N1CCC(n2c(=O)[nH]c3ccccc32)CC1 (stereo unspecified),inactive: -13.9%
12,Cc1ccc(NC2(C#N)CCN(Cc3ccccc3)CC2)cc1,inactive: -6.83%
13,Cc1ccc(C(=O)NCC2(N3CCCCC3)CCCCC2)o1,inactive: -0.315%
14,Fc1ccccc1NC1CCN(Cc2ccccc2)CC1,inactive: 5.72%
15,Cc1ccc(Nc2c([N+](=O)[O-])cc([N+](=O)[O-])cc2[N+](=O)[O-])cc1,inactive: -25.7%
16,c1ccc(CN2CCC(Nc3ccccc3)CC2)cc1,inactive: 7.43%
17,Cc1cc(N(CCCl)CCCl)ccc1C=O,inactive: -0.58%
18,O=c1[nH]c2ccccc2n1C1CCN(C(c2ccccc2)c2nnnn2C2CCCC2)CC1 (stereo unspecified),inactive: -7.67%
19,CCCN1CCC(Nc2cc(OC)cc(OC)c2)CC1,inactive: 9.74%

row,SMILES,"activity, negative = inhibition"
1,CN(C)C1(CNC(=O)c2cccc(C#N)c2)CCCCC1,inactive: 2.88%
2,CC(C)(C)n1nnnc1C(c1cccc2ccccc12)N1CCC(n2c(=O)[nH]c3ccccc32)CC1 (stereo unspecified),inactive: -18.5%
3,CC(C)(C)OC(=O)N1CCC(N(C(=O)c2ccccc2)c2ccc(Cl)cc2)CC1,inactive: -3.08%
4,N#Cc1ccc(C(=O)NCC2(N3CCCCC3)CCCCC2)cc1,inactive: -0.317%
5,N/C(=N\O)c1c(N)no[n+]1[O-],inactive: 8.26%
6,CCOC(=O)N1CCC(Nc2ccc(C)cc2)CC1,inactive: -3.84%
7,COc1cccc(C(c2nnnn2C(C)(C)C)N2CCC(n3c(=O)[nH]c4ccccc43)CC2)c1OC (stereo unspecified),inactive: -28.5%
8,CCCCn1nnnc1C(c1cccc(OC)c1OC)N1CCC(n2c(=O)[nH]c3ccccc32)CC1 (stereo unspecified),inactive: -21.7%
9,CCc1cc(C(=O)NCC2(N3CCCCC3)CCCCC2)sc1C,inactive: 10.1%
10,O=C(OC1CN2CCC1CC2)C1c2ccccc2C=Cc2ccccc21 (stereo unspecified),inactive: 19.2%
11,O=c1[nH]c2ccccc2n1C1CCN(C(c2cccs2)c2nnnn2C2CCCC2)CC1 (stereo unspecified),inactive: -14.5%
12,O=C(O)c1cccc(Nc2c([N+](=O)[O-])cc([N+](=O)[O-])cc2[N+](=O)[O-])c1,inactive: 3.4%
13,O=C(NCC1(N2CCOCC2)CCCCC1)c1cc(Br)ccc1Cl,inactive: 5.45%
14,CCCCn1nnnc1C(c1ccccc1)N1CCC(n2c(=O)[nH]c3ccccc32)CC1 (stereo unspecified),inactive: -5.99%
15,COc1cc(C(=O)NCC2(N3CCOCC3)CCCCC2)cc(OC)c1C,inactive: -14.7%
16,COc1ccc(C(=O)NCC2(N3CCOCC3)CCCCC2)cc1OC,inactive: 3.72%
17,O=c1[nH]c2ccccc2n1C1CCN(C(c2ccnc3ccccc23)c2nnnn2C2CCCC2)CC1 (stereo unspecified),inactive: -3.58%
18,O=c1[nH]c2ccccc2n1C1CCN(C(c2cccs2)c2nnnn2C2CCCCC2)CC1 (stereo unspecified),inactive: -2.98%

# Source: PubChem BioAssay AID720708 (National Center for Advancing Translational Sciences (NCATS), 2013)
